Data on one compound can be found in US9126973B2, “Multiheteroaryl compounds as inhibitors of H-PGDS and their use for treating prostaglandin D2 mediated diseases” (Cayman Chemical Company, Incorporated, priority 2008, dated 2015).

Amino acid sequences for entries named in this document (tags omitted). A change or cut given only in a name is not applied to a line headed by its entry.
UniProt O60760: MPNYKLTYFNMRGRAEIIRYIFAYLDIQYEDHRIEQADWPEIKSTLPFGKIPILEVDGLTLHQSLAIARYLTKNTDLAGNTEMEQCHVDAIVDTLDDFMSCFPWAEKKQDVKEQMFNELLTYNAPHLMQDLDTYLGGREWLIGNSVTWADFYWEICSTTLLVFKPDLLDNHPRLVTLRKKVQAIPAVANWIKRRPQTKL

The target of this assay is H-PGDS (Homo sapiens (Human), UniProt O60760). The assay is described as follows: H-PGDS Fluorescence Polarization Binding Assay (FPBA). The following applies: H-PGDS-MBP fusion enzyme, fluorescent probe, reduced glutathione 5 mM, 60-90 minutes at room temperature, 96-well format. On the procedure:
H-PGDS Fluorescence Polarization Binding Assay This assay essentially is available from Cayman Chemical Company as Catalog item #600007. The test data reported for the aforementioned Examples (H-PGDS FPBA IC50) were generated using a 96-well, instead of the 384-well, format. […] Assays were performed in 96-well microtiter plates in 100 μL of total sample volume. Excitation and emission wavelengths appropriate for the employed detection analyte were used. […] Twelve clean microfuge tubes were labeled A1 through A12. […] Dimethyl sulfoxide (50 μL) was added to each of tubes A1 through A11. The HQL-79 control solution was serially diluted by removing 50 μL from tube A12 and placing it in tube A11 with subsequent thorough mixing of the contents of tube A11. Next, 50 μL was removed from tube A11 and was placed into tube A10 with subsequent thorough mixing of the contents of tube A10. This process was repeated for tubes A9 through A2. […] The cocktail prepared was enough for either a standard 96-well, 384-well, or higher density plate. A test compound may be dissolved in DMSO, ethanol, or methanol at several concentrations when the titration endpoint is unknown. […] Assay cocktail (95 μL) was added to each plate well. […] The measurements were taken in the fluorescent polarization mode with the z-height set to the middle of the well and the G-factor set to 1.13 on a Tecan Safire 2 reader.

pIC50: −log10 of the molar value.

A word on the pIC50: it is the negative decadic logarithm of the IC50, by convention in mol/L. A high value points to a low IC50. Regarding `CC(C)(C)OC(=O)N1CCC(c2ncc(-c3cnc(-c4ccccc4)nc3)[nH]2)C1` (racemic) [Example 28, (±)-tert-butyl 3-(5-(2-phenylpyrimidin-5-yl)-1H-imidazol-2-yl)pyrrolidine-1-carboxylate], the pIC50 is 6.82.
